# In US7399762B2, “Opioid receptor agonist compounds and their use in treatment of pain” (Research Triangle Institute, priority 2005, dated 2008):
# The chains behind the UniProt entries cited, without tags or fusion partners.
# UniProt P41143, whole entry: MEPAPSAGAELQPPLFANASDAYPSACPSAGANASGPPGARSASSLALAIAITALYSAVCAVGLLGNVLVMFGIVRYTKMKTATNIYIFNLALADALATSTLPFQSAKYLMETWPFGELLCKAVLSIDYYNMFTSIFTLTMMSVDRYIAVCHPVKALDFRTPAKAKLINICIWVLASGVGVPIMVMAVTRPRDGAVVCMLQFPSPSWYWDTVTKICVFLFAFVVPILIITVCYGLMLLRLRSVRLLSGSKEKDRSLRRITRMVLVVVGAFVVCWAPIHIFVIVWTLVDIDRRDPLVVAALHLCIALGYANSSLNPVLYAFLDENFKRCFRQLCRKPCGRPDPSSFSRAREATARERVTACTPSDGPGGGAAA
# Target: T1, human delta opioid receptor (Homo sapiens, UniProt P41143)
# T1 construct: expressed in transfected cells; host or cells: CHO cells (membrane homogenates)
# Assay: [35S]GTP-γ-S binding stimulation, intrinsic activity at delta receptor
# Assay type: biochemical
# Conditions: compared with DPDPE
# Protocol: Determination of intrinsic activity. Test compounds 2.8 and 2.11 were assayed for their ability to stimulate [35S]GTP-γ-S binding in CHO cell membrane homogenates expressing either the human mu or human delta opioid receptor. The compounds were assayed in triplicate at eight different concentrations. […] The membranes were incubated with one of eight concentrations of positive control or test compound, 0.1 nM [35S]GTP-γ-S and 10 μM GDP in a 50 mM HEPES buffer (pH 7.4) at room temperature for one hour, after which bound radioligand was separated from free via rapid vacuum filtration over GF-B filters using a Brandel Scientific (Gaithersburg, MD) 96-well harvester. Bound radioactivity was determined using a TopCount 12-detector instrument (Packard Instruments) using standard scintillation counting techniques. The data were normalized to samples containing vehicle (basal binding), and a three-parameter logistic curve fit to the data using Prism (version 3.0, GraphPad Software, Inc., San Diego, Calif.). The EC50 and upper asymptote (Emax) were calculated for each compound and the data reported as mean ±SEM.
substance,measurement,value
"D-Pen2,D-Pen5]-enkephalin [DPDPE, reference compound]",intrinsic activity at the delta opioid receptor (in words),full agonist
